Values of other authors in article PMC11988861, “Step Enzymatic Hydrolysis and In Silico Screening-Assisted Preparation of Bioactive Peptides from Abalone” (Foods, 2025).

Chains of the proteins cited; added tags and fusions are not shown. Residues count along the entry.
UniProt P12821, 30-1306 limits assumed: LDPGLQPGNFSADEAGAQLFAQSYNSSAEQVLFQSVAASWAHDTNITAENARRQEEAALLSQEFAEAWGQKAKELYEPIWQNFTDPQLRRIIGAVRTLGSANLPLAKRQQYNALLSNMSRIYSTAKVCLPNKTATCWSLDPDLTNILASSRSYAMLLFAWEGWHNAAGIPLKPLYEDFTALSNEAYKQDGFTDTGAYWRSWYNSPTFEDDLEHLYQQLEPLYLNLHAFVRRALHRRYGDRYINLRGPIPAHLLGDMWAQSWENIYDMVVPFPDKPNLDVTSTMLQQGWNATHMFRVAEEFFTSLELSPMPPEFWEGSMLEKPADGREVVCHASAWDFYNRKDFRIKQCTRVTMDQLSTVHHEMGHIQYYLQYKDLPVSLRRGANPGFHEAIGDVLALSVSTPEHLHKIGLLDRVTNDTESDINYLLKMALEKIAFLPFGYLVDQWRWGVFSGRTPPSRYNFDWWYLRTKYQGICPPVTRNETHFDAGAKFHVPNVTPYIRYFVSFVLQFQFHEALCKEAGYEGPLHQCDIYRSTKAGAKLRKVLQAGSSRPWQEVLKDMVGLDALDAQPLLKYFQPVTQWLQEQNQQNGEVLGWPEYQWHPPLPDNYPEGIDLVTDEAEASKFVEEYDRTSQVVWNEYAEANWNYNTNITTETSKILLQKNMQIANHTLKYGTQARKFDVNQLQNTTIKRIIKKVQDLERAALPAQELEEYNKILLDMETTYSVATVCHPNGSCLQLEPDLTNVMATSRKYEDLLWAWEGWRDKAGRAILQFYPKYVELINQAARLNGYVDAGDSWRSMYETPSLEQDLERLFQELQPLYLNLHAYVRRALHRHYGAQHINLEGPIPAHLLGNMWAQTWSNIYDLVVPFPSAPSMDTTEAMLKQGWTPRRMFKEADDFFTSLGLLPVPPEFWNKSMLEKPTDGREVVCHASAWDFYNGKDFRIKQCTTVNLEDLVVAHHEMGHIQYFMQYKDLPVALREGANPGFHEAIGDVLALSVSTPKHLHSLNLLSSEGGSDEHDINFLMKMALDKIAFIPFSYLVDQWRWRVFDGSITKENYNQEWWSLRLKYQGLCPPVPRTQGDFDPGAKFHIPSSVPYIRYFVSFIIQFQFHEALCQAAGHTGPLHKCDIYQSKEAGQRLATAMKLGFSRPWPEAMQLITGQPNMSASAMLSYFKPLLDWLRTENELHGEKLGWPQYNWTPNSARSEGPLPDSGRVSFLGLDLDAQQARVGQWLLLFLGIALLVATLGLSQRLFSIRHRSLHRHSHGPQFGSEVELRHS

Target: ACE (Homo sapiens, UniProt P12821)
Settings: literature ACEi peptides from skipjack tuna muscle
From the text: Table 5 Summary of properties of 14 peptides. | column: ACEi IC50/ (mg·mL^−1)

- ACEi IC50: 60 µg/mL
Structure (SMILES): N[C@@H](CO)C(=O)N1CCC[C@H]1C(=O)O
